# Measured values as given in patent US9777034B2, “Modular synthesis of amphiphilic Janus glycodendrimers and their self-assembly into glycodendrimersomes” (The Trustees of The University of Pennsylvania, priority 2013, dated 2017).
# Format: physicochemical
# Protocol: Three twin-hydrophobic dendrons containing branched alkyl groups in their hydrophobic part and alkyne (11d) or azide (14d,e,f) groups were combined with the carbohydrates 23 and 27 containing azide groups, with the carbohydrates 41a and 43a containing the alkyne directly attached, and with 41d that has the alkyne attached to the carbohydrate via a tri(ethylene)glycol spacer. This provided eleven Janus glycodendrimers (Scheme 6). All these Janus glycodendrimers are soluble in THF (10 mg/mL to 40 mg/mL) and after injection produced concentrations in water from 0.5 mg/mL up to 2 mg/mL. The injection in water of their THF solutions generated assemblies with polydispersity ranging from 0.03 to 0.20. […] The analysis of the structure of cubosomes will be presented in a later section. […] Compounds with branched alkyl chains in the hydrophobic side and a long tri(ethylene)glycol spacer in the hydrophilic side (FIG. 3b, c, d) induce the formation of high-quality glycodendrimersomes. […] The extension of the thick wall is about three times larger than that of the regular thin wall which is about the thickness of two Janus dendrimer length (˜7 nm). […]
row,Substance,solubility in THF
1,"((3,4)12G-PE-TRZ-(galactose)2 [Compound 46aa]",limited solubility in THF
2,"(3,4)12G1-PE-TRZ-(mannose)2 [Compound 46ab]",limited solubility in THF
